Patent publication US20100273203A1 (priority 2009, published 2010)

Protein sequences, listed by entry. Tags and fused reporters are not part of them.
UniProt P20815, whole entry: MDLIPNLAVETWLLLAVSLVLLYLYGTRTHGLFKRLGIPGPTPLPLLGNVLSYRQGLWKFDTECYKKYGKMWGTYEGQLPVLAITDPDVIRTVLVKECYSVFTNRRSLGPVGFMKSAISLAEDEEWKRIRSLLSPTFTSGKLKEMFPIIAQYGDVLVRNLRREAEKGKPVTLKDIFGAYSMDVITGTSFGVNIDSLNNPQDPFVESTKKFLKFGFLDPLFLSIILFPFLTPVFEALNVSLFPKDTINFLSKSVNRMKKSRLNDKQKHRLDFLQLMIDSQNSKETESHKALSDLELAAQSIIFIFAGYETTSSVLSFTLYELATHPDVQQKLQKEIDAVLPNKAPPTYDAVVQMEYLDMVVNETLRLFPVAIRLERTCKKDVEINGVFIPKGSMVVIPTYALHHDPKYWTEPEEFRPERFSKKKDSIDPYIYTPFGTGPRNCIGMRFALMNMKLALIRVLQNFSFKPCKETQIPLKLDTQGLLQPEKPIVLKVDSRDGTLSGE

Target: CYP3A5 (Homo sapiens, UniProt P20815)
Assay: Steady-state metabolism of R- and S-warfarin by recombinant CYP3A5
[1] = 10-hydroxywarfarin formation, 37° C, pH 7.4

Row | Structure (SMILES) | Km (4′-hydroxywarfarin formation) [µM] | Vmax (4′-hydroxywarfarin formation) | Km (10-hydroxywarfarin formation) [µM] | Vmax [1]
1 | CC(=O)C[C@H](c1ccccc1)c1c(O)c2ccccc2oc1=O [R-warfarin, (R) warfarin] | 244 | 108 pmol product/min/nmol P450 | 129 | 263 pmol product/min/nmol P450
2 | CC(=O)C[C@@H](c1ccccc1)c1c(O)c2ccccc2oc1=O [S-warfarin, (S) warfarin] | 672 | 157 pmol product/min/nmol P450 | 318 | 67 pmol product/min/nmol P450
